Experimental data published in ChEMBL document CHEMBL3632521, “A study of ad-proline peptidomimetic inhibitor of melanoma and endothelial cell invasion through activity towards MMP-2 and MMP-9” (Medchemcomm, 2015).

Protein sequences, listed by entry. Tags and fused reporters are not part of them. Lines headed by an entry give the natural chain unless they say otherwise; changes in a name come on top.
UniProt P08253: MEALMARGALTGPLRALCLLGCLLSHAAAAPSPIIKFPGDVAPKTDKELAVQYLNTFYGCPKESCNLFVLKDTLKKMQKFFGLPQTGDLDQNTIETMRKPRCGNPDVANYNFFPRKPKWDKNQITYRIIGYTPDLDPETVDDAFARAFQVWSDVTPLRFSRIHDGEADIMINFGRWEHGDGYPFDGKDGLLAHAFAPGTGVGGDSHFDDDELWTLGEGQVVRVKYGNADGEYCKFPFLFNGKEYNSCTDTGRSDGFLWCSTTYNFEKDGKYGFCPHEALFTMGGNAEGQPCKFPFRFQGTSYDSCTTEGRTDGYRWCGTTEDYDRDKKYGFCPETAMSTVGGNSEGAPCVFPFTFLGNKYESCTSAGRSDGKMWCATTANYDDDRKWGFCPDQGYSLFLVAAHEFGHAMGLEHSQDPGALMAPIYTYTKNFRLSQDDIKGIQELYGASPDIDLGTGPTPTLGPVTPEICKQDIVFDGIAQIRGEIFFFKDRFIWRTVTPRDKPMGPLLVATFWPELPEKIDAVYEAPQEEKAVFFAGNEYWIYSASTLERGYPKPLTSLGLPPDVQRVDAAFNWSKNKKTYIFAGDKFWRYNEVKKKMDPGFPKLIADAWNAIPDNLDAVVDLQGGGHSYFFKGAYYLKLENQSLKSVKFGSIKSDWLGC

Key:
[1] = target: T1, 72 kDa type IV collagenase (Homo sapiens, UniProt P08253); details: A375P, 20 uM
[2] = target: T1, 72 kDa type IV collagenase; details: 20 uM

- inhibition [1]: Active
- inhibition [2]: Active
Compound: COc1ccc(C(=O)N[C@@H]2C[C@H](C(=O)NO)N(S(=O)(=O)c3ccc(Cl)c(Cl)c3)C2)c(OC)c1

The source made the active and inactive calls. The rule behind the calls is not given here.
